Source: ChEMBL document CHEMBL1938274, “Discovery of potent and specific CXCR3 antagonists” (Bioorg Med Chem Lett, 2012)

Target: T1, C-X-C chemokine receptor type 3 (Homo sapiens, UniProt P49682)
T1 sequence (P49682 whole entry): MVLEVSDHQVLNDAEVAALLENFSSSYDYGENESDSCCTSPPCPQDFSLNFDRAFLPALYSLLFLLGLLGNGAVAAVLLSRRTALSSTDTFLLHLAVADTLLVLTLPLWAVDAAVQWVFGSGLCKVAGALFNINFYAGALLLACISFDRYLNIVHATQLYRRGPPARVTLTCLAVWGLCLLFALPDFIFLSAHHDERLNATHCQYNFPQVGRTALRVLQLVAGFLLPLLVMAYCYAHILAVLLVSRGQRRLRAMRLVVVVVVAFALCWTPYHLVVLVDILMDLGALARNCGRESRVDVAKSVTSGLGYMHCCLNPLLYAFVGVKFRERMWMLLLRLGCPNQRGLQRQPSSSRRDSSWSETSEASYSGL
Assay: Displacement of [125I]-IP-10 from CXCR3 in presence of 100% human serum
Method in brief: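 Radioligand competition with [125I]-IP-10 at CXCR3 in buffer containing 100% human serum; IC50 reported.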

- IC50: 46 nM
Compound: CCS(=O)(=O)CCN(C(=O)Cc1ccc(F)c(C(F)(F)F)c1)[C@H](C)c1nc2ncccc2c(=O)n1-c1ccc(C#N)cc1
